Earlier results, collected in US6444726B1, “Biocidal compositions” (Clariant Finance (BVI) Limited, priority 1995, dated 2002).

Details: 25 ° C.

Silver Iodide
Solubility: 2.6 ng/mL
